Legend:
human recombinant PDE4 = target: T1, human recombinant PDE4 (Homo sapiens, UniProt Q07343); assay: Inhibition of human recombinant PDE4 (charcoal separation PDE assay); type: biochemical; conditions: PDE4 IC50 (μM), structure table
T1 construct: made in house; host or cells: Saccharomyces cerevisiae BJ2-54
Method: The compounds of structural formula (I) were tested for an ability to inhibit PDE4. […] The IC50 value for compounds of structural formula (I) were determined using human recombinant PDE4.
Phosphodiesterase activity of the preparations was determined as follows. […] In this assay, PDE activity converts [32P]cAMP or [32P]cGMP to the corresponding [32P]5′-AMP or [32P]5′-GMP in proportion to the amount of PDE activity present. The [32P]5′-AMP or [32P]5′-GMP then was quantitatively converted to free [32P]phosphate and unlabeled adenosine or guanosine by the action of snake venom 5′-nucleotidase. […] The assay was performed at 30° C. in a 100 μL reaction mixture containing (final concentrations) 40 mM Tris HCl (pH 8.0), 1 μM ZnSO4, 5 mM MgCl2, and 0.1 mg/mL bovine serum albumin (BSA). Alternatively, in assays assessing PDE1-specific activity, incubation mixtures further incorporated the use of 0.1 mM CaCl2 and 10 μg/mL calmodulin. PDE enzyme was present in quantities that yield <30% total hydrolysis of substrate (linear assay conditions). The assay was initiated by addition of substrate (1 mM [32P]cAMP or cGMP), and the mixture was incubated for 12 minutes. […] After centrifugation (750×g for 3 minutes) to sediment the charcoal, a sample of the supernatant was taken for radioactivity determination in a scintillation counter and the PDE activity was calculated.

By UniProt entry, the sequences of proteins in these tests, tags left out. Where a name states a change or a piece, a line headed by the entry shows the natural chain unless it says otherwise.
UniProt Q07343: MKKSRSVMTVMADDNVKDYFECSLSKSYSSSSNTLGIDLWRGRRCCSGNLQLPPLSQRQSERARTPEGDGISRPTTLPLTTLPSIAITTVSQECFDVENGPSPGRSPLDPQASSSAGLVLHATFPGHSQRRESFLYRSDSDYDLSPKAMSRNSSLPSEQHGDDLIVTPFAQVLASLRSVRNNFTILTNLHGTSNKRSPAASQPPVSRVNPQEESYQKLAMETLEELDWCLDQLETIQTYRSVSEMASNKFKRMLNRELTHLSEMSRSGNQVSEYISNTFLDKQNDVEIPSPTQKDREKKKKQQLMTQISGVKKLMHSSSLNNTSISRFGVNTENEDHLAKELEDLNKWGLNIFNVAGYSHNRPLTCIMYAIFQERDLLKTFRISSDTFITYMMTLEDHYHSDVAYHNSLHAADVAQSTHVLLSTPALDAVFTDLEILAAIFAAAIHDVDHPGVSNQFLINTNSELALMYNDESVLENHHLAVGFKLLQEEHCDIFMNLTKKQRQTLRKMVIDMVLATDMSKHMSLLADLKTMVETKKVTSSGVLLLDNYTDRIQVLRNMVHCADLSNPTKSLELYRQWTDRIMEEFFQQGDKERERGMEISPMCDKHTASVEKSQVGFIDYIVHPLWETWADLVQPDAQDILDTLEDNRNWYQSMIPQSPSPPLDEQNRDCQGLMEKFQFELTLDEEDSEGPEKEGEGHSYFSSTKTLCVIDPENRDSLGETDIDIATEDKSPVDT

human recombinant PDE4B = target: T2, human recombinant PDE4B (Homo sapiens, UniProt Q07343); assay: Inhibition of human recombinant PDE4B; type: biochemical
T2 construct: made in house; host or cells: Saccharomyces cerevisiae strain YI23 harboring HDUN2.32

Compound: CCOC(=O)c1c(C)nn(-c2cccc([N+](=O)[O-])c2)c1C [Example 2, 3,5-dimethyl-1-(3-nitrophenyl)-1H-pyrazole-4-carboxylic acid ethyl ester]
- IC50 (human recombinant PDE4): 0.1 µM
- IC50 (human recombinant PDE4B): 100 nM

From patent publication US7087634B2, “Cyclic AMP-specific phosphodiesterase inhibitors” (ICOS Corporation, priority 1999, dated 2006)
